Measured values published in patent publication US20230212164A1, “ANNULATED 2-AMINO-3-CYANO THIOPHENES AND DERIVATIVES FOR THE TREATMENT OF CANCER” (BOEHRINGER INGELHEIM INTERNATIONAL GMBH, priority 2020, published 2023).

Protein sequences, listed by entry. Tags and fused reporters are not part of them. Residues count along the entry.
UniProt P01116, whole entry G12C: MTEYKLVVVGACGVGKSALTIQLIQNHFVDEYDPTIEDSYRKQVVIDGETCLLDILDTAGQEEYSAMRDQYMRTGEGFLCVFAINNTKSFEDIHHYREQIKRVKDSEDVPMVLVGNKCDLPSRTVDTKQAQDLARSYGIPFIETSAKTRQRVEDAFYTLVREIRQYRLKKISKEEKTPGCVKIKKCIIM
UniProt P01116, 1-169 isoform 2 C118S/C51S/C80L/G12C limits assumed: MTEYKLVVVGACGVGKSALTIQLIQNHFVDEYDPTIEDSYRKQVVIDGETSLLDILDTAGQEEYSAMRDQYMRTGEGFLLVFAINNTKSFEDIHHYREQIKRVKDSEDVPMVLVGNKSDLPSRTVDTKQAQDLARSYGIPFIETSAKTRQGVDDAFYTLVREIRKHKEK

Tests used:
[1] = biological target: protein-protein interaction between SOS1 and KRAS G12C (Homo sapiens, UniProt P01116, C118S/C51S/C80L/G12C); assay: KRAS::SOS1 AlphaScreen binding assay; conditions: read-out: IC50 G12C::SOS1, Table 36
[2] = biological target: KRASG12-dependent Ba/F3 cells (Homo sapiens, UniProt P01116, G12C, cells depend on it); assay: Ba/F3 cell model proliferation assay (AlamarBlue, 72 h); type: cell-based; conditions: read-out: IC50 Ba/F3 KRASG12C, Ba/F3 cells transduced with KRASG12C
[3] = tested on: pERK (Thr202/Tyr204) in NCI-H358_Cas9_SOS2 (SOS2 knocked); assay: ERK phosphorylation assay 2 (AlphaLISA SureFire Ultra p-ERK1/2); conditions: read-out: IC50 H358 pERK, ERK phosphorylation assay 2 (values marked with *)

For `C=CC(=O)N1CC2CC1CN2c1cc(-c2noc([C@@]3(C)CCCc4sc(N)c(C#N)c43)n2)nc(O[C@@H](C)[C@@H]2CCCN2C)n1` (stereo partly drawn), the pIC50 [1] was 8.80, the GI50 [2] was 18.7 nM and the pIC50 [3] was 7.22.

pIC50: −log10 of the molar value.
